According to article PMC4686915, “An engineered scorpion toxin analogue with improved Kv1.3 selectivity displays reduced conformational flexibility” (Scientific Reports, 2015):
“Also recorded” adds a separate entry of the source.

Sequences of proteins named here, by UniProt entry; tags and fusion partners are left off.
UniProt P22001, whole entry: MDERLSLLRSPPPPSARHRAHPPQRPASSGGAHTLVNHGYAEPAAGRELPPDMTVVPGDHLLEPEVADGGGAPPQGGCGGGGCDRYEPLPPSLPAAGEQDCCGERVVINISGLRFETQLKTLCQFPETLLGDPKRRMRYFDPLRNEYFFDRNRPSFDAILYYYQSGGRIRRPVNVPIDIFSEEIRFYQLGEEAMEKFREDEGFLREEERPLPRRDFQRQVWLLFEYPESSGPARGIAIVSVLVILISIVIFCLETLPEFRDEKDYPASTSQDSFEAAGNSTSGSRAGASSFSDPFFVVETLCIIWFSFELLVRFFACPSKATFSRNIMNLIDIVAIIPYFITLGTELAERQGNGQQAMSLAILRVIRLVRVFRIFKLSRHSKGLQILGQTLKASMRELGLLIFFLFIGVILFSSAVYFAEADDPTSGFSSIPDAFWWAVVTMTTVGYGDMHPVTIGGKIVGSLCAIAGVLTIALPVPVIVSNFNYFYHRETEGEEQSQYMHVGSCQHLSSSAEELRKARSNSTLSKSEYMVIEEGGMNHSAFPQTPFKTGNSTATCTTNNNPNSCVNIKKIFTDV
UniProt P16389, whole entry: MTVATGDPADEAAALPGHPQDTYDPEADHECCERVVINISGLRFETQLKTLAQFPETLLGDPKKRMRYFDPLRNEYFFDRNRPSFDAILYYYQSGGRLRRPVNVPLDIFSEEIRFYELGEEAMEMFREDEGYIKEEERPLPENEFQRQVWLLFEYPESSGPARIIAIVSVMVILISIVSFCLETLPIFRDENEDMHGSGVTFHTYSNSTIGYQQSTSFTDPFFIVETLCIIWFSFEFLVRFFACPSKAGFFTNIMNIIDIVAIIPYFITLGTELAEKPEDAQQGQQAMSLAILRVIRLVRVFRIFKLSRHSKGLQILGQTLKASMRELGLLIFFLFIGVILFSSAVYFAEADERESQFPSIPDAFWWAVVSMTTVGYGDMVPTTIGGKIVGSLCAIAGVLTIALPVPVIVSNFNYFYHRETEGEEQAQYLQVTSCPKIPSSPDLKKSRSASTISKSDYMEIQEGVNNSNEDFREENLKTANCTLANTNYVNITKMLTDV

Columns and labels:
Assay type in all cases: cell-based
hKv1.3 = biological target: T1, hKv1.3 (Homo sapiens, UniProt P22001); assay: Patch-clamp block of Kv1.3 currents in activated human lymphocytes; details: for Hill coefficient H, Kv1.3: Hill fit of dose-response on Kv1.3; for affinity and selectivity for Kv1.3, in words: patch-clamp, vs Kv1.2 and other channels
T1 construct: endogenous in cells

Kv1.3 [1] = biological target: T2, Kv1.3 (Homo sapiens, UniProt P22001); assay: Wash-out kinetics of Kv1.3 current block; parameters: endogenous in cells; details: for TOFF, wash-out time constant: Kv1.3, human lymphocytes, +50 mV pulses from −100 mV every 15 s, single exponential fit, mean ±SEM, n = 3 sAnTx, 4 N17A, 6 [F32T]-AnTx, 6 [N17A/F32T]-AnTx, 1 nM sAnTx, 3 nM variants; for dissociation from Kv1.3, in words: wash-out time constants
hKv1.2 = biological target: T3, hKv1.2 (Homo sapiens, UniProt P16389); assay: Patch-clamp block of Kv1.2 currents in transfected CHO cells; details: for block of Kv1.2 current, in words: 100 nM toxin; for Hill coefficient H, Kv1.2: Hill fit of dose-response on Kv1.2
T3 construct: expressed in transfected cells; host or cells: CHO cells, transient transfection (Lipofectamine 2000), GFP plasmid co-transfected 10:1

mKv1.1 = assay: Patch-clamp block of mKv1.1 currents in L929 cells; details: 100 nM toxin, whole-cell, +50 mV
Procedure: (§1) mKv1.1 currents were measured on L929 cells stably expressing the channel. Cells were cultured as described earlier. CHO cells were transiently transfected with pcDNA3 vector containing the hKv1.2 gene or with pEGFP-C1 vector coding the KCa3.1 gene[10] using Lipofectamine 2000 (Invitrogen) reagent according to the manufacturer’s protocol. In case of Kv1.2 the pcDNA3 vector was co-transfected with the plasmid coding GFP in a ratio of 10:1 (channel plasmid:GFP). GFP-positive transfectants were identified with a Nikon TE2000U fluorescence microscope (Nikon, Tokyo, Japan) and were used for current recordings.
(§2) Solutions for whole-cell and outside-out patch-clamp measurements contained in mM: (bath: 145 NaCl, 5 KCl, 1 MgCl2, 2.5 CaCl2, 5.5 glucose, 10 HEPES, 0.1 mg/ml BSA, pH 7.35) and (pipette-filling solution for Kv channels: 140 KF, 2 MgCl2, 1 CaCl2, 10 HEPES, 11 EGTA, pH 7.22; for KCa3.1 channels: 150 K-aspartate, 5 HEPES, 10 EGTA, 8.7 CaCl2, 2 MgCl2, pH 7.22). Pipettes had 3-5-MΩ resistance in the bath. Series resistance compensation up to 85% was used.
(§3) The remaining current fraction at a given toxin concentration is RF=I/I0, where I and I0 are current amplitudes in the presence and absence of the toxin, respectively. […]
(§4) A. Kv1.1 currents were measured in an L929 cell stably expressing the mKv1.1 channel. […]
(§5) currents were measured in a CHO cell transiently transfected with the KCa3.1 gene. […]

hKCa3.1 = assay: Patch-clamp block of KCa3.1 currents in transfected CHO cells; details: 100 nM toxin, whole-cell, voltage ramps -100 to +50 mV
Procedure: as §1, §2, §3, §4, §5

Kv1.3 [2] = biological target: T2, Kv1.3; assay: Association rate (wash-in kinetics) to Kv1.3; parameters: endogenous in cells; host or cells: human lymphocytes (inferred); details: for kon: calculated from TON and TOFF cell by cell, low concentrations for wash-in, unit meant 10^7 M-1s-1
Excerpt: Supplementary Figure S5. Association rates of sAnTx and [N17A/F32T]-AnTx to Kv1.3 […]
Normalized current amplitudes are plotted as a function of time during the development of block […]
and recovery from block by the toxins. Depolarizing pulses were applied every 15 s. Data points […]
were fit with single exponential functions and TON (wash-in) and TOFF (wash-out) time constants […]
were used to calculate kON values. […]
kON values characterizing the association rate were obtained from toxin wash-in kinetics at lower […]
concentrations (at high concentrations block developed too quickly to be reliably fit) and wash-out […]
kinetics (following high concentration block) on a cell-by-cell basis to exclude perfusion system […]
positioning effects. kON was calculated as: […]
k = 1 − TON × kOFF , k = 1
(also on this page, place not known: De polarizing T T OFF cell -by-cell kON kOFF ON Wash-in Time (s) 0 50 100 Relative amplitude 0.0 0.5 1.0 sAnTx (1 nM) N17/F32T (1 nM) Wash-out Time (s) 0 50 100 150) […]
(1 picture or pasted object on this page, not shown here)

[3] = perfusion with toxin-free solution

SMILES | Hill coefficient H, Kv1.3 (hKv1.3) | affinity and selectivity for Kv1.3, in words (hKv1.3) | affinity and selectivity for Kv1.3, in words (hKv1.3; listed as F32T) | reduction of affinity for Kv1.3 compared to sAnTx (hKv1.3; ratio of Kd values vs sAnTx) | TOFF, wash-out time constant (Kv1.3 [1]) | dissociation from Kv1.3, in words (Kv1.3 [1]) | block of Kv1.2 current, in words (hKv1.2) | estimated increase in Kd for Kv1.2 (hKv1.2; estimated from block at 100 nM, vs sAnTx) | affinity for Kv1.2, in words (hKv1.2; patch-clamp) | Kd (hKv1.3; whole-cell/outside-out patch-clamp, activated human lymphocytes, 15-ms pulses to +50 mV every 15 s, pH 7.35 bath, 2-parameter Hill fit) | effect on Kv1.1 current, in words (mKv1.1) | effect on KCa3.1 current, in words (hKCa3.1) | Hill coefficient H, Kv1.2 (hKv1.2) | association rate to Kv1.3, in words (Kv1.3 [2]; [N17A/F32T]-AnTx vs sAnTx) | kon (Kv1.3 [2]) | affinity and selectivity for Kv1.3, in words (hKv1.3; listed as N17A) | block of Kv1.3 current, in words (hKv1.3; 0.3 nM sAnTx, equilibrium block) | reversibility of Kv1.3 block (hKv1.3; [3]) | reversibility of Kv1.2 block (hKv1.2; [3])
CSCC[C@@H]1NC(=O)[C@@H]2CSSC[C@H](NC(=O)[C@H](CCC(=O)O)NC(=O)[C@H](CCCCN)NC(=O)[C@@H]3CCC(=O)N3)C(=O)N[C@@H]([C@@H](C)O)C(=O)NCC(=O)N3CCC[C@H]3C(=O)N[C@@H](CCC(N)=O)C(=O)N[C@@H](Cc3c[nH]cn3)C(=O)N[C@H]3CSSC[C@H](NC(=O)[C@H](CCCCN)NC(=O)[C@H](CCCNC(=N)N)NC(=O)[C@H](CC(N)=O)NC1=O)C(=O)N[C@@H](CCCCN)C(=O)N[C@H]1CSSC[C@H](NC(=O)[C@H](Cc4ccccc4)NC(=O)[C@H](CC(N)=O)NC(=O)[C@H]([C@@H](C)O)NC3=O)C(=O)N[C@@H](CCCNC(=N)N)C(=O)N[C@@H](CCCCN)C(=O)N[C@@H](CC(N)=O)C(=O)N[C@@H](CCCCN)C(=O)N[C@@H](CSSC[C@@H](C(=O)N[C@@H](CCCCN)C(=O)O)NC(=O)[C@H](CC(N)=O)NC(=O)[C@H]([C@@H](C)O)NC1=O)C(=O)N[C@@H]([C@@H](C)O)C(=O)N[C@@H](Cc1c[nH]cn1)C(=O)NCC(=O)N[C@@H](CCCCN)C(=O)N2 [[F32T]-AnTx] | 1 | markedly improved toxin selectivity for Kv1.3, but with reduced affinity | its affinity for Kv1.3 also decreased slightly | about 30 fold | 26.6 ± 4.1 s | lower affinity and faster dissociation rate | very small amount of block was detected | ~ 1000 fold | lost the affinity for Kv1.2 |  |  |  |  |  |  |  |  |  | 
CSCC[C@@H]1NC(=O)[C@@H]2CSSC[C@H](NC(=O)[C@H](CCC(=O)O)NC(=O)[C@H](CCCCN)NC(=O)[C@@H]3CCC(=O)N3)C(=O)N[C@@H]([C@@H](C)O)C(=O)NCC(=O)N3CCC[C@H]3C(=O)N[C@@H](CCC(N)=O)C(=O)N[C@@H](Cc3c[nH]cn3)C(=O)N[C@H]3CSSC[C@H](NC(=O)[C@H](CCCCN)NC(=O)[C@H](CCCNC(=N)N)NC(=O)[C@H](CC(N)=O)NC1=O)C(=O)N[C@@H](CCCCN)C(=O)N[C@H]1CSSC[C@H](NC(=O)[C@H](Cc4ccccc4)NC(=O)[C@H](CC(N)=O)NC(=O)[C@H]([C@@H](C)O)NC3=O)C(=O)N[C@@H](CCCNC(=N)N)C(=O)N[C@@H](CCCCN)C(=O)N[C@@H](C)C(=O)N[C@@H](CCCCN)C(=O)N[C@@H](CSSC[C@@H](C(=O)N[C@@H](CCCCN)C(=O)O)NC(=O)[C@H](CC(N)=O)NC(=O)[C@H]([C@@H](C)O)NC1=O)C(=O)N[C@@H]([C@@H](C)O)C(=O)N[C@@H](Cc1c[nH]cn1)C(=O)NCC(=O)N[C@@H](CCCCN)C(=O)N2 [[N17A/F32T]-AnTx] | 0.9 | high affinity and highly Kv1.3-selective; also recorded: very high affinity and selectivity for Kv1.3 over mKv1.1, hKv1.2, and hKCa3.1 channels |  |  | 19.6 ± 2.83 s | dissociates from the channel at a much higher rate than the WT | negligible block |  |  | 600 pM | ineffective; also recorded: lack of significant blocking potency | ineffective; also recorded: lack of significant blocking potency | 0.8 | faster association rate | 4.38e+07 M⁻¹ s⁻¹ |  |  |  | 
CSCC[C@@H]1NC(=O)[C@@H]2CSSC[C@H](NC(=O)[C@H](CCC(=O)O)NC(=O)[C@H](CCCCN)NC(=O)[C@@H]3CCC(=O)N3)C(=O)N[C@@H]([C@@H](C)O)C(=O)NCC(=O)N3CCC[C@H]3C(=O)N[C@@H](CCC(N)=O)C(=O)N[C@@H](Cc3c[nH]cn3)C(=O)N[C@H]3CSSC[C@H](NC(=O)[C@H](CCCCN)NC(=O)[C@H](CCCNC(=N)N)NC(=O)[C@H](CC(N)=O)NC1=O)C(=O)N[C@@H](CCCCN)C(=O)N[C@H]1CSSC[C@H](NC(=O)[C@H](Cc4ccccc4)NC(=O)[C@H](CC(N)=O)NC(=O)[C@H]([C@@H](C)O)NC3=O)C(=O)N[C@@H](CCCNC(=N)N)C(=O)N[C@@H](CCCCN)C(=O)N[C@@H](C)C(=O)N[C@@H](CCCCN)C(=O)N[C@@H](CSSC[C@@H](C(=O)N[C@@H](CCCCN)C(=O)O)NC(=O)[C@H](CC(N)=O)NC(=O)[C@H](Cc3ccccc3)NC1=O)C(=O)N[C@@H]([C@@H](C)O)C(=O)N[C@@H](Cc1c[nH]cn1)C(=O)NCC(=O)N[C@@H](CCCCN)C(=O)N2 [[N17A]-AnTx] | 0.9 | no significant effect alone |  |  | 45.6 ± 2.0 s | dissociate from Kv1.3 more slowly |  |  |  |  |  |  | 0.8 |  |  | did not alter selectivity significantly |  |  | 
CSCC[C@@H]1NC(=O)[C@@H]2CSSC[C@H](NC(=O)[C@H](CCC(=O)O)NC(=O)[C@H](CCCCN)NC(=O)[C@@H]3CCC(=O)N3)C(=O)N[C@@H]([C@@H](C)O)C(=O)NCC(=O)N3CCC[C@H]3C(=O)N[C@@H](CCC(N)=O)C(=O)N[C@@H](Cc3c[nH]cn3)C(=O)N[C@H]3CSSC[C@H](NC(=O)[C@H](CCCCN)NC(=O)[C@H](CCCNC(=N)N)NC(=O)[C@H](CC(N)=O)NC1=O)C(=O)N[C@@H](CCCCN)C(=O)N[C@H]1CSSC[C@H](NC(=O)[C@H](Cc4ccccc4)NC(=O)[C@H](CC(N)=O)NC(=O)[C@H]([C@@H](C)O)NC3=O)C(=O)N[C@@H](CCCNC(=N)N)C(=O)N[C@@H](CCCCN)C(=O)N[C@@H](CC(N)=O)C(=O)N[C@@H](CCCCN)C(=O)N[C@@H](CSSC[C@@H](C(=O)N[C@@H](CCCCN)C(=O)O)NC(=O)[C@H](CC(N)=O)NC(=O)[C@H](Cc3ccccc3)NC1=O)C(=O)N[C@@H]([C@@H](C)O)C(=O)N[C@@H](Cc1c[nH]cn1)C(=O)NCC(=O)N[C@@H](CCCCN)C(=O)N2 [sAnTx] | 1.0 |  |  |  | 52.9 ± 6.1 s | dissociate from Kv1.3 more slowly |  |  |  |  | Neither sAnTx nor the single-substituted analogues caused significant reduction | Neither sAnTx nor the single-substituted analogues caused significant reduction | 0.8 |  | 1.78e+07 M⁻¹ s⁻¹ |  | significant reduction of the current amplitude | full recovery of the current | reversibly blocked
